# Experimental data: US20030171347A1, “Sigma receptor antagonists having anti-cocaine properties and uses thereof” (priority 1998, published 2003)
# Amino acid sequences for entries named in this document (tags omitted). A change or cut given only in a name is not applied to a line headed by its entry.
# UniProt P34975: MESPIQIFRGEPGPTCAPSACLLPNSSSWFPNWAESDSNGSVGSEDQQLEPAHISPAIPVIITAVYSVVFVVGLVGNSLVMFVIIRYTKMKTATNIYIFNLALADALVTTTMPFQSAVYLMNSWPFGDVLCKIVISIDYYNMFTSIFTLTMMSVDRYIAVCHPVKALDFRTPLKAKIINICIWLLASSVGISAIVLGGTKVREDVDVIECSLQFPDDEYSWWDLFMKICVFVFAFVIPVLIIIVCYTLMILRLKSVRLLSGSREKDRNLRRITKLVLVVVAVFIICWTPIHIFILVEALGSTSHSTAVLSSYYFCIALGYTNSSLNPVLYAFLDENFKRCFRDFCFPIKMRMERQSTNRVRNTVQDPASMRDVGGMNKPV
# UniProt Q60492, whole entry: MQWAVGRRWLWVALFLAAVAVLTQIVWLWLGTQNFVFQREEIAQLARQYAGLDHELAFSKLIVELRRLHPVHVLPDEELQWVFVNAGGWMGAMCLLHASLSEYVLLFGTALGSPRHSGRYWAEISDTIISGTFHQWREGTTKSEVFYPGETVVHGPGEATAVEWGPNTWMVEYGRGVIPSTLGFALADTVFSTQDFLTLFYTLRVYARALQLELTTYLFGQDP
# Columns and labels:
# opiate receptors = opiate receptors (Rattus norvegicus, UniProt P34975); conditions: read-out: Opiate
# σ1 receptors = molecular target: T1, σ1 receptors (Cavia porcellus, UniProt Q60492); test: σ1 receptor competition binding; conditions: Table 1; [3H](+)-pentazocine, guinea pig brain; mean±SEM, minimum of two independent assays
# T1 construct: Crude P2 membranes were prepared from guinea pig brain, rat brain, or rat liver; from tissue; host or cells: guinea pig brain (crude P2 membranes)
SMILES,IC50 (opiate receptors) [µM],Ki (σ1 receptors) [µM]
CN(C)CCN(C)CCc1ccc(Cl)c(Cl)c1 [BD1047],> 10,–
COc1ccccc1CC(=O)N(C)CCN1CCCC1 [YZ-008],–,5.46 ± 0.686
CCCN(CCc1ccc(Cl)c(Cl)c1)CCN1CCCCC1 [BD1069],> 10,–
